The values that follow come from PubChem BioAssay AID1347072 (National Center for Advancing Translational Sciences (NCATS), 2019).

Amino acid sequences for entries named in this document (tags omitted).
UniProt P51570, whole entry: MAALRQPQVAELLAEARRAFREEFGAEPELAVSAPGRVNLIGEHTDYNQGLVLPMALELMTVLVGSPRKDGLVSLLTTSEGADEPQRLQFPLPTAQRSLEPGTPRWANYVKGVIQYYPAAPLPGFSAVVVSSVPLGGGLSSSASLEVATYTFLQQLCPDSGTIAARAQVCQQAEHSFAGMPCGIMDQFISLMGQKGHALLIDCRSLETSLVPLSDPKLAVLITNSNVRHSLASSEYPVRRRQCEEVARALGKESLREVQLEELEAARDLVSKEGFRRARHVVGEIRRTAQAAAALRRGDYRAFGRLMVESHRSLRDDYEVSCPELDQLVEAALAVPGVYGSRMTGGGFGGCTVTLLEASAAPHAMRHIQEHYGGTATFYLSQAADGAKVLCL

The entries are a selection whose mix differs from that of the whole data set. Activity calls are given as the source filed them. Calls come from the whole dose curve; as a rule, active = well fitted curve in the direction sought with a large enough effect; inconclusive = small, poorly fitted or top-dose-only effect, or another doubt; inactive = no such curve, though single readings can be large or run the other way.

The target in this assay is Galactokinase (Homo sapiens) (UniProt P51570). Nature of the assay: qHTS Assay for Inhibitors of Human Galactokinase (GALK): NCGC Sytravon Library Screen.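 Note: plate controls were full GALK reaction for no effect and reaction lacking GALK for full effect.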 To be noted: recombinant GALK, Kinase-Glo ATP luminescence, 1 h; at 57.5 µM (top of the series). The text has this:
Inherited deficiency of galactose-1-phosphate uridyltransferase (GALT) can result in a potentially lethal disorder called Classic Galactosemia (OMIM 230400). Several lines of evidence indicate that an elevated level of galactose-1-phosphate (gal-1-p), the product of galactokinase (GALK), is a major, if not sole, pathogenic mechanism in patients with classic galactosemia. Therefore, finding inhibitors of GALK is a potential novel therapy for this inherent metabolic disease and is the long term goal of this project. This screen is run against the NCGC Sytravon compound library collection. GALK (provided by Kent Lai) was assayed using ATP and D-(+)-Galactose (Sigma-Aldrich cat# G0750) as substrates. Promega Kinase-Glo Plus technology was used to detect kinase activity. Reactions with and without GALK were used as negative and positive controls together with Protein Tyrosine Phosphatase CD45 inhibitor (EMD Bioscience cat# 540215) which is shown to inhibit GALK activity. Decrease in activity corresponds to inhibition of the enzyme is the desired outcome for this assay. NIH Molecular Libraries Probe Production Network [MLPCN] NIH Chemical Genomics Center [NCGC] Grant: R03 MH085689-01 PI Name: Kent Lai Ph.D., University of Utah
NCGC Assay Protocol Summary: Three uL/well of ATP-buffer solution (35 uM ATP, 20mM HEPES pH8.0, 5 mM MgCl2, 60 mM NaCl, 1 mM DTT, 0.01% BSA final concentration) was dispensed into 1536-well, assay plates (Greiner, solid white medium-binding plates) with Aurora Discovery BioRAPTR Flying Reagent Dispenser (FRD; Beckton-Dickenson). Compound solution (23 nL) was transferred to the assay plate using the Kalypsys 1536-pin tool. One uL/well GALK-galactose solution (5 nM GALK, 100 uM galactose, 20 mM HEPES pH8.0, 5 mM MgCl2, 60 mM NaCl, 1 mM DTT, 0.01% BSA final concentration) was then added using the FRD yielding a total kinase reaction volume of 4 uL/ well. After 1 hour of room temperature incubation, 4 uL Kinase-Glo Plus reagent was added for a final assay volume of 8 uL/ well. Luminescence was detected with the ViewLux plate reader (Perkin Elmer, Waltham, MA) after 10 min incubation using a 1 sec exposure time and 2x binning.
Take `COc1ccccc1C(=O)NCC1(N2CCOCC2)CCCCC1`: the activity, negative = inhibition was inactive: -9.4%.
Next, `CCCOc1cccc(C(=O)NCC2(N3CCOCC3)CCCCC2)c1`: inactive: 1.52%; `O=C(NCC1(N2CCOCC2)CCCCC1)c1ccccc1Br`: inactive: 1.41%.
Next, `CCCCOc1ccccc1C(=O)NCC1(N2CCOCC2)CCCCC1`: inactive: 0.345%.
Then `O=C(NCC1(N2CCOCC2)CCCCC1)c1ccc([N+](=O)[O-])cc1`, with inactive: 0.267%; and `O=C(NCC1(N2CCOCC2)CCCCC1)c1ccccc1[N+](=O)[O-]`, with inactive: -5.6%; and `O=C(NCC1(N2CCOCC2)CCCCC1)c1ccccc1`, with inactive: -2.18%.
For the molecule `CN(C)C1(CNC(=O)c2ccc(C(C)(C)C)cc2)CCCCC1`, the activity, negative = inhibition was inactive: 0.133%.
For the molecule `CC(C)(C)c1ccc(C(=O)NCC2(N3CCOCC3)CCCCC2)cc1`, the activity, negative = inhibition was inactive: 4.59%.
Next, `Cc1ccccc1C(=O)NCC1(N(C)C)CCCCC1`: inactive: 0.751%.
Then `COc1cc(C(=O)NCC2(N3CCOCC3)CCCCC2)cc(OC)c1OC`, with inactive: 4.85%.
